# Measurements as given in US20210253697A1 (Novo Nordisk, published 2021).
# By UniProt entry, the sequences of proteins in these tests, tags left out. Residues count along the entry.
# UniProt Q9NP99, 21-200 limits assumed: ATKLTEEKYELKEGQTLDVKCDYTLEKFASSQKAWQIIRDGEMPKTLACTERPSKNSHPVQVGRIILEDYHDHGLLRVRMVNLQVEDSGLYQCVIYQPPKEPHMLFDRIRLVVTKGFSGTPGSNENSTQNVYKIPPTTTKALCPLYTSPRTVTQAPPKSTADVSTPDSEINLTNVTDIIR
# T1: cynomolgus TREM-1 (cTREM-1 protein, SPR analyte of Examples 9 and 11) (cynomolgus monkey)
# T1 construct: Soluble analyte; also called cyno TREM1
# T1 chain: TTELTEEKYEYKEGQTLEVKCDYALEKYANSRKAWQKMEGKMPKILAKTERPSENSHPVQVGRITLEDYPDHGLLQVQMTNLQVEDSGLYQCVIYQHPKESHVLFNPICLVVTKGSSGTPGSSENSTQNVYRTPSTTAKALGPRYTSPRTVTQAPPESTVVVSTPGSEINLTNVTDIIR
# B1: mAb 0121 (antibody, V domains shown)
# VH: EVQLVESGGGLVQPGGSLKLSCAASGFTFSTYAMHWVRQASGKGLEWVGRIRTKSSNYATYYAASVKGRFTISRDDSKNTAYLQMNSLKTEDTAVYYCVRDMGQRRQFAYWGQGTLVTVSS
# VL: DIVMTQSPDSLAVSLGERATINCRASESVDTFDYSFLHWYQQKPGQPPKLLIYRASNLESGVPDRFSGSGSGTDFTLTISSLQAEDVAVYYCQQSNEDPYTFGQGTKLEIK
# notes: recombinant; also called 14F113/14F69 hz variant HC T93V; 14F113 hz variant HC T93V
# Key:
# [1] = target: T1, cynomolgus TREM-1 (cTREM-1 protein, SPR …); assay: SPR, mAb captured, cTREM-1 analyte
# [2] = target: T2, human TREM-1 (hTREM-1 protein, SPR analyte of Examples 9 and 11) (human, UniProt Q9NP99 21-200, limits assumed); assay: SPR, mAb captured, hTREM-1 analyte
# T2 construct: Soluble analyte
binder,measurement,setting,value
B1,koff,[1],0.00013 s⁻¹
same,kon,[1],130000 M⁻¹ s⁻¹
same,Kd,[2],0.63 nM
same,koff,[2],0.0017 s⁻¹
same,kon,[2],2.8e+06 M⁻¹ s⁻¹
